This is an account of results in patent US20110166128A1, “Diaryldiazepine Prodrugs for the Treatment of Neurological and Psychological Disorders” (priority 2010, published 2011).

The nature of this data set: Equilibrium solubility in aqueous buffers as a function of pH. The following applies: room temperature; 0.1 M citrate (pH 4, 5) or 0.1 M phosphate (pH 6, 7, 8) buffers with 0.2 M NaCl; pH range 4-9 as stated. From the text: At pH 4 and 5, 0.1 M citrate buffers were used, while for pH 6, 7 and 8 a set of 0.1M phosphate buffers were used. Each buffer also contained 0.2 M NaCl. No cosolvents or other potentially solubilizing components were included. Buffer preparations were subdivided in order to individually test the solubility of only one material in a given buffer sample.

Take `Cc1cc2c(s1)Nc1ccccc1N=C2N1CCN(C)CC1.O.O=C(O)c1cc2ccccc2c(Cc2c(O)c(C(=O)O)cc3ccccc23)c1O` [olanzapine pamoate salt]: the “variation in solubility across the pH range studied” value is on record as > 10 fold.
